{
  "source": "patent US6013621A",
  "about": "“Method of treating psychosis and/or hyperactivity” (The Rockfeller University, priority 1997, dated 2000)",
  "key": {"[1]": {"system": "thr^34 -phosphorylated DARPP-32", "assay": "phospho-DARPP-32 immunoblot in mouse neostriatal slices", "type": "cell-based", "experimental": "(§1) Preparation and incubation of striatal slices. Male C57BL/6 mice (5-8 weeks old) were sacrificed by decapitation. The brains of the decapitated mice were rapidly removed and placed in ice-cold, oxygenated Krebs-HCO3 -buffer (124 mM NaCl, 4 mM KCl, 26 mM NaHCO3, 1.5 mM CaCl2, 1.25 mM KH2 PO4, 1.5 mM MgSO4 and 10 mM D-glucose, pH 7.4). Coronal slices (350 μm) were prepared using a vibratome. Striatum and nucleus accumbens were dissected from the slices in ice-cold Krebs-HCO3 - buffer. Each slice was placed in a polypropylene incubation tube with 2 ml of fresh Krebs-HCO3 - buffer containing adenosine deaminase (10 μg/ml). The slices were preincubated at 30° C. under constant oxygenation with 95 % O2 /5 % CO2 for 60 minutes. The buffer was replaced with fresh Krebs-HCO3 -buffer after 30 minutes of preincubation. In some experiments, slices were incubated in Ca^2+ -free/EGTA medium (124 mM NaCl, 4 mM KCl, 26 mM NaHCO3, 1.25 mM KH2 PO4, 3.0 mM MgSO4, 10 mM D-glucose and I mM EGTA, pH 7.4) for 20 minutes after 60 minutes of preincubation in Krebs-HCO3 - buffer. Slices were treated with drugs as specified in each experiment.\nImmunoblotting. Frozen tissue samples were sonicated in boiling 1% SDS and boiled for an additional 10 minutes. Small aliquots of the homogenate were retained for protein determination by the BCA protein assay method (Pierce) using bovine serum albumin as a standard. […] The membranes were immunoblotted using a monoclonal antibody (mAb-23; 1:750 dilution) [Snyder et al., (1992)], which is a phosphorylation state-specific antibody raised against a DARPP-32 peptide containing phospho-thr^34, the site phosphorylated by cAMP-dependent protein kinase. A monoclonal antibody (C24-5a; 1:7500 dilution) generated against DARPP-32 (Hemmings and Greengard, 1986), which is not phosphorylation state-specific, was used to estimate the total amount of DARPP-32 in samples.\n(§2) Data were analyzed by Student's t -test with significance defined as p<0.05."}, "[2]": {"system": "thr^34 -phosphorylated DARPP-32", "assay": "phospho-DARPP-32 immunoblot in nucleus accumbens slices", "type": "cell-based, mouse", "experimental": "as §1\nImmunoblotting. Frozen tissue samples were sonicated in boiling 1% SDS and boiled for an additional 10 minutes. […]\nas §2"}, "[3]": {"assay": "prepulse inhibition (PPI) of the startle reflex in mice", "conditions": "mouse, in vivo", "text": "Chambers that are used to assess startle are housed in a sound-attenuated room with a 60 dB(A) ambient noise level. Such chambers consist of a Plexiglass cylinder 8.2 cm in diameter resting on a 12.5×25.5 cm Plexiglass frame within a ventilated enclosure. Acoustic noise bursts are presented via a speaker mounted 24 cm above the animal. A piezoelectric accelerometer mounted below the Plexiglass frame detects and transduces motion within the cylinder. The delivery of acoustic stimuli is controlled by a microcomputer. Startle amplitude is defined as the average of 100 readings. Background noise and all acoustic stimuli are delivered through a speaker (frequency response between 0.5 and 16 Khz) in a chamber. The test session consists of giving: (i) a startle stimulus alone (a 118 dB [A] 40 ms broad band burst); or (ii) no stimulation; or (iii) a startle stimulus preceded 100 ms earlier by a prepulse (a 70 dB [A] 20 ms broad band burst). The amount of PPI is expressed as the percentage decrease in the startle response caused by the presentation of the prepulse. The amount of PPI is calculated using the following equation: [(startle amplitude caused by pulse alone minus startle amplitude caused by pulse preceded by prepulse)/(startle amplitude caused by pulse alone)]×100."}},
  "note": "“Also recorded” adds a separate entry of the source.",
  "data": [
    {"molecule": "CCCN1CCC[C@@H]2Cc3n[nH]cc3C[C@H]21", "note": "[quinpirole]", "values": [
      {"measurement": "concentration of near maximal effect on SKF82526-stimulated DARPP-32 phosphorylation", "setting": "[1]", "result": 100, "unit": "nM"},
      {"measurement": "decrease in SKF 82526-induced phosphorylation of DARPP-32", "setting": "[1]", "result": 40, "unit": "%"},
      {"measurement": "effect on the SKF82526-stimulated level of phosphorylated DARPP-32", "setting": "[1]", "result": "antagonized; also recorded: significantly reduced"},
      {"measurement": "effect on the level of phosphorylated DARPP-32 under Ca^2+ -free conditions", "setting": "[1]", "result": "failed to decrease"},
      {"measurement": "level of phospho-DARPP-32, Cyclosporin A (+), 2 min", "setting": "[1]", "result": "5.98 ± 1.28"},
      {"measurement": "level of phospho-DARPP-32, Cyclosporin A (+), 10 min", "setting": "[1]", "result": "5.60 ± 1.05"},
      {"measurement": "level of phospho-DARPP-32, Cyclosporin A (-), 2 min", "setting": "[1]", "result": "0.525 ± 0.051"},
      {"measurement": "level of phospho-DARPP-32, Cyclosporin A (-), 10 min", "setting": "[1]", "result": "0.580 ± 0.058"},
      {"measurement": "phosphorylated DARPP-32 as % of the SKF82526-stimulated level", "setting": "[1]", "result": "about 60%"},
      {"measurement": "quinpirole-induced decrease in the level of phosphorylated DARPP-32 in the presence of cyclosporin A", "setting": "[1]", "result": "still observed"},
      {"measurement": "reduction of the 8-bromo-cAMP-induced increase of phosphorylated DARPP-32", "setting": "[1]", "result": 30, "unit": "%"},
      {"measurement": "reduction of the forskolin-stimulated DARPP-32 phosphorylation", "setting": "[1]", "result": 35, "unit": "%"},
      {"measurement": "time at which the effect on the basal level was observed", "setting": "[1]", "result": "≤ 1", "unit": "min"},
      {"measurement": "time for which the effect on the basal level was sustained", "setting": "[1]", "result": "at least 15 minutes"},
      {"measurement": "decrease of the SKF82526-stimulated DARPP-32 phosphorylation", "setting": "[2]", "result": "about 60%"},
      {"measurement": "decrease of the basal level of DARPP-32 phosphorylation", "setting": "[2]", "result": "about 50%"},
      {"measurement": "effect on the degree of PPI", "setting": "[3]", "result": "reduces the degree of PPI"}
    ]}
  ]
}
